Reference: EP4748842A1, “CAMPTOTHECIN COMPOUND, ANTIBODY DRUG CONJUGATE, AND PREPARATION METHOD THEREFOR AND USE THEREOF” (Shanghai Pharmaceuticals Holding Co., Ltd., priority 2023, dated 2025)

Key:
NCI-N87 = experiment: Bystander effect, NCI-N87/MDA-MB-231 co-culture, flow cytometry (positive cells); format: cell-based, human; details: seeding ratio NCI-N87:MDA-MB-231 5:1, co-culture 7 days, proportion in total particles
Method: (§1) In this experiment, II-2 and T-Dxd were co-cultured with NCI-N87/MDA-MB-231 cells for 7 days, and flow cytometry was used to detect the proportion of NCI-N87 or MDA-MB-231 cells in the total particles, which reflects the ability of ADC to kill negative cells via the bystander effect.
(§2) NCI-N87 cells were cultured in one T175 flask, digested, resuspended in 8 mL for cell counting, centrifuged to remove the supernatant, and the cell density was adjusted. MDA-MB-231 (ATCC, HTB-26) cells were cultured in one T175 flask, digested, resuspended in 6 mL for cell counting, centrifuged to remove the supernatant, and the cell density was adjusted. Cell counting was performed with a cell counter: 20 µL of the cell suspension was aspirated, mixed with 20 µL of VisStain AOPI Staining Solution, and 20 µL of the mixture was taken for cell counting. The cells were seeded into 96-well cell culture plates (flat-bottomed) with RPMI1640 medium/10%FBS respectively, and 90 µL of each cell was added to each well, i.e., the cell ratio was 10000 cells/well of NCI-N87 + 2000 cells/well of MDA-MB-231 (5:1). The plate was tapped gently to mix, and then placed in a 37°C 5% CO2 cell incubator for incubation for 16 hours. […]

MDA-MB-231 = experiment: Bystander effect, NCI-N87/MDA-MB-231 co-culture, flow cytometry (negative cells); format: cell-based; details: seeding ratio NCI-N87:MDA-MB-231 5:1, co-culture 7 days, proportion in total particles
Method: as §1, §2

Q: What does the source list for T-Dxd?
A: Percentage of positive and negative cells (%) NCI-N87 (NCI-N87): 9.79%; Percentage of positive and negative cells (%) MDA-MB-231 (MDA-MB-231): 4.74%
